Reported water solubility values for industrial, environmental and drug-like chemicals

Source: data files of OPERA 2.9 (Mansouri et al.), github.com/kmansouri/OPERA.

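OPERA's authors assembled the values from existing databases and did not measure them anew. A listed value is a point estimate from one report or more. Conditions of the individual experiments are not part of the data. Where a salt, mixture or single isomer is drawn, the source does not say that exactly this form was tested. Some upstream entries may be estimates or bounds without being marked so.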

Solubility in water is on a log10 molar scale (set defined at 25 °C). "n/a" marks a cell with nothing listed here.

structure (SMILES)	name	water solubility (log10 mol/L)
OCCC(F)(F)C(F)(F)C(F)(F)C(F)(F)C(F)(F)C(F)(F)C(F)(F)C(F)(F)C(F)(F)C(F)(F)F	10:2 Fluorotelomer alcohol	-7.395
N#CCCN(CCOC(=O)c1ccccc1)c1ccc(N=Nc2ccc([N+](=O)[O-])cc2)cc1	C.I. Disperse Orange 73	-7.17
CCOC(=O)C1CCC(C(=O)OCC)CC1 (stereo not given)	Diethyl 1,4-cyclohexanedicarboxylate	-2.251
Nc1nccnc1C(=O)O	3-Aminopyrazine-2-carboxylic acid	-1.763
OCCOc1ccc(OCCO)cc1	2,2'-[1,4-Phenylenebis(oxy)]diethanol	-1.229
CC1=CC[C@H](C(C)C)C=C1	(R)-alpha-Phellandrene	-4.494
Clc1ccc(-c2ccc(-c3c(Cl)cc(Cl)cc3Cl)cc2)cc1	n/a	-9.32
C=CC(C)(CCC=C(C)C)OC(=O)N(C)C (stereo not given)	n/a	-3.527
CCCCCCCCCCOC1CCS(=O)(=O)C1 (stereo not given)	Thiophene, 3-(decyloxy)tetrahydro-, 1,1-dioxide	-3.709
CCCCCCCCCCCCCCCCCC(=O)OCC(COC(=O)CCCCCCCCCCCCCCCCC)(COC(=O)CCCCCCCCCCCCCCCCC)COC(=O)CCCCCCCCCCCCCCCCC	Pentaerythrityl tetraoctanoate	-6.37
Cc1ccc(S(=O)(=O)NC(=O)NN2CC3CCCC3C2)cc1 (stereo not given)	Gliclazide	-4.29
C=CCOc1ccc(S(=O)(=O)c2ccc(O)cc2)cc1	4-[[4-(Allyloxy)phenyl]sulfonyl]phenol	-4.688
CC(C=O)Cc1ccc(C(C)C)cc1 (stereo not given)	Cyclamen aldehyde	-3.46
Fc1cccc(Cl)c1	Benzene, 1-chloro-3-fluoro-	-2.35
c1ccc(COc2ccc3ccccc3c2)cc1	Benzyl 2-naphthyl ether	-6.938
Cc1cc(CC(C)C)ccc1CCC=O	3-(4-Isobutyl-2-methylphenyl)propanal	-3.921
CCCCCCCCCCCO	1-Undecanol	-4.437
C=CC(=O)OCCCCCCOc1ccc(C(=O)Oc2ccc(C#N)cc2)cc1	4-cyanophenyl-4-(6-(acryloyloxy)hexyloxy)benzoate	-7.951
O=C(O)C=C(F)C(F)(F)C(F)(F)C(F)(F)C(F)(F)C(F)(F)C(F)(F)C(F)(F)F	2H-Perfluoro-2-decenoic acid	-3.853
COc1ccc(N=NC(C(C)=O)C(=O)Nc2ccccc2OC)c([N+](=O)[O-])c1 (stereo not given)	Pigment Yellow 65	-8.308
O=C1OC2(c3ccccc31)c1cc(I)c(O)c(I)c1Oc1c2cc(I)c(O)c1I	C.I. Solvent Red 140	-3.077
Oc1c(-c2ccccc2)cccc1-c1ccccc1	[1~1~,2~1~:2~3~,3~1~-Terphenyl]-2~2~-ol	-5.684
O=C(O)[C@@H]1CC[C@@H](C(=O)O)S1	2,3,4,5-Tetradeoxy-2,5-epithio-D-threo-hexaric acid	-0.334
O=C1c2ccccc2-c2ccccc21	9-Fluorenone	-3.797
C[C@@H](CN1CC(=O)NC(=O)C1)N1CC(=O)NC(=O)C1	Dexrazone	-1.412
CC(=O)CC(=O)Nc1ccc2[nH]c(=O)[nH]c2c1	3-Oxo-N-(2-oxo-2,3-dihydro-1H-benzimidazol-5-yl)butanamide	-2.523
CCCc1nc(N)nc(N)n1	Butyroguanamine	-0.916
OC1CCc2[nH]c3ccccc3c2C1 (stereo not given)	2,3,4,9-tetrahydro-1H-carbazol-3-ol	-2.697
Cc1ccc2oc(=O)ccc2c1	6-Methyl coumarin	-2.129
C=C(C)C(=O)OCC(C)O (stereo not given)	2-Hydroxypropyl 2-methylacrylate	-0.572
CCOC(=O)C(C)(O)c1ccc(Oc2ccccc2)cc1 (stereo not given)	Ethyl 2-(4-phenoxyphenyl)lactate	-4.192
CCC(C)=CCCC(C)=CC#N	3,7-Dimethyl-2,6-nonadienenitrile	-3.59
CN1c2ccccc2C(=O)c2ccc(Cl)cc2S1(=O)=O	n/a	-5.962
COCCCCC(=O)c1ccc(C(F)(F)F)cc1	Fluvoxketone	-3.544
O=C(O)c1c(Cl)c(Cl)c(C(=O)O)c(Cl)c1Cl	Chlorthal	-2.48
COC(=O)c1cc(S(N)(=O)=O)ccc1SCCCO	Methyl 2-[(3-hydroxypropyl)sulfonyl]-5-sulfamoylbenzoate	-2.371
CCCCCCCCCCC(CCCCCCCC)COC(=O)CCCCCCCC(=O)OCC(CCCCCCCC)CCCCCCCCCC (stereo not given)	Nonanedioic acid, 1,9-bis(2-octyldodecyl) ester	-8.273
CC(c1ccccc1)c1ccc(O)cc1O (stereo not given)	4-(1-Phenylethyl)benzene-1,3-diol	-1.734
CCc1nc(N)nc(N)c1-c1ccc(Cl)cc1	Pyrimethamine	-3.4
CC(C)c1ccc2c(c1)OCC(=O)CO2	2H-1,5-Benzodioxepin-3(4H)-one, 7-(1-methylethyl)-	-1.906
CC(C)=CCCC(C)=CCCC(C)=CCO	Farnesol	-4.531
Cc1nc2c(O)cccn2c(=O)c1CCO	n/a	-2.09
CCOC(=O)CN(C)C(=O)COC(=O)c1ccccc1OC(C)=O	n/a	-2.546
c1ccc2c(c1)cc1ccc3cc4ccccc4c4ccc2c1c34	Dibenzo[a,i]pyrene	-8.74
CC(=O)Nc1ccc(S(=O)(=O)Nc2nc(C)cs2)cc1	N-acetyl-sulfanilic acid-(4-methyl-thiazol-2-ylamide)	-2.151
CCOC(=O)CN[C@@H](C(=O)N1CC[C@H]1C(=O)NCc1ccc(/C(N)=N/O)cc1)C1CCCCC1	Ximelagatran	-3.749
O=C(O)[C@H]1O[C@H](O)[C@H](O)[C@@H](O)[C@@H]1O	alpha-D-Glucuronic acid	0.398
CCOC(=O)C(C)(C)c1ccc(C(=O)C2CC2)cc1	Ethyl 2-[4-(cyclopropanecarbonyl)phenyl]-2-methylpropanoate	-3.876